Results reported in publication PMC3042044.

Molecular target: SIRT3 (human)
Assay: fluorescence polarisation

Histone H3 peptide with thiotrifluoroacetyl-lysine at Lys-14
Kd: 5.9 µM
